Values quoted from earlier work, collected in patent EP4840446A1, “USE OF FUSED TRICYCLIC GAMMA-AMINO ACID DERIVATIVE IN TREATING PATHOLOGICAL CENTRAL NERVOUS PAIN” (dated 2026).

By UniProt entry, the sequences of proteins in these tests, tags left out. Where a name states a change or a piece, a line headed by the entry shows the natural chain unless it says otherwise. Residues count along the entry.
UniProt P54289, 25-1103 limits assumed: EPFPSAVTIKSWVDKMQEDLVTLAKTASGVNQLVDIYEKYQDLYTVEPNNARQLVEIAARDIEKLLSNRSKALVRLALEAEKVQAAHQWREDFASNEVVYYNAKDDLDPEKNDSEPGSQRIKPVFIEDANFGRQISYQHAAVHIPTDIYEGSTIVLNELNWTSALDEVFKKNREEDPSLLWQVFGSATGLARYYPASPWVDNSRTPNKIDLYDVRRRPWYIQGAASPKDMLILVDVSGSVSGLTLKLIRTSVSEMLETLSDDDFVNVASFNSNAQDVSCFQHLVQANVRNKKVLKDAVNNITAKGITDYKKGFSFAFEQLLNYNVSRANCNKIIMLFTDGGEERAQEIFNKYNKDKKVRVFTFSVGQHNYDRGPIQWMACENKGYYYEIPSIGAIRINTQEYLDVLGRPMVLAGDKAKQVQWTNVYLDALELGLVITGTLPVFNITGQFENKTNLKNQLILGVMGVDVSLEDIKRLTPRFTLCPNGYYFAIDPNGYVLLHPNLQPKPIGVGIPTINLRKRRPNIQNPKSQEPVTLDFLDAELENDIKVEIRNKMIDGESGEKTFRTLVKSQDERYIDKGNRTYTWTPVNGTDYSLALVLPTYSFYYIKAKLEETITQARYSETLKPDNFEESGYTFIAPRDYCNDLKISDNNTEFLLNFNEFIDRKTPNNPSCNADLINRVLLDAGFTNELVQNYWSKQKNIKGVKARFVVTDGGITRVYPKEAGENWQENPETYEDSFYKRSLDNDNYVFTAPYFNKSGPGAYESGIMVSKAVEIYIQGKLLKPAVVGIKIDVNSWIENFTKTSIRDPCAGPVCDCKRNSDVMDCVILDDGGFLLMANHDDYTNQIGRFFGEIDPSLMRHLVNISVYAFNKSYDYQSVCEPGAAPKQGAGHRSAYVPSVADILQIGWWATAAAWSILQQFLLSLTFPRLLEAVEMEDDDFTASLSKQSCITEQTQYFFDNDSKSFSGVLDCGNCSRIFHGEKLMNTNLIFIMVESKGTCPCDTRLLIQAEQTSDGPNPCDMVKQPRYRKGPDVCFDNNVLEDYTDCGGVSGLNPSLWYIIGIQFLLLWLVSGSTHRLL

Assays:
[1] = tested on: spinal cord injury-related neuropathic pain; settings: patients with spinal cord injury-related neuropathic pain
[2] = target: α2δ-1 subunit of calcium channels (Homo sapiens, UniProt P54289)

Compound	efficacy in relieving pain compared with placebo [1]	dissociation rate from the α2δ-1 ([2]; compared with pregabalin)	binding affinity and selectivity ([2]; α2δ-1 subunit of calcium channels)
CC(C)C[C@H](CN)CC(=O)O	superior efficacy over placebo	–	–
Mirogabalin	–	slower rate compared with pregabalin	high binding affinity and selectivity
